Test results reported in patent publication US9492460B2, “Carbazole compounds useful as bromodomain inhibitors” (Bristol-Myers Squibb Company, priority 2013, dated 2016).

biological target: bromodomain BRD4 (44-168), BRD4 (333-460), and BRD4 (1-477 or 44-460) (Homo sapiens, UniProt O60885); test: Time Resolved Fluorescence Resonance Energy Transfer (TR-FRET) binding assay; conditions: read-out: FRET BRD4 IC50; one of the FRET assays described

Q: With Cc1noc(C)c1-c1cc(C(N)=O)c2c3ccc(C(C)(C)O)cc3n(C(CCC(F)(F)F)CCC(F)(F)F)c2c1 as the compound, how does the IC50 read?
A: < 50 nM

Q: Which IC50 does the source give for Cc1noc(C)c1-c1ccc2c3cc(C(=O)N4C[C@@H](C)O[C@@H](C)C4)ccc3n(CCc3ccccc3)c2c1 (relative stereo) here?
A: < 500 nM

Q: With Cc1noc(C)c1-c1cc(C(N)=O)c2c3ccc(C(C)(C)O)cc3n(C(CCC(F)(F)F)c3ccccc3C(F)(F)F)c2c1 (single isomer, unassigned) as the compound, how does the IC50 read?
A: < 50 nM

Q: How did the IC50 turn out when Cc1noc(C)c1-c1cc(C(N)=O)c2c3ccc(C(C)(C)O)cc3n(C(CCC(F)(F)F)c3ccccc3Cl)c2c1 (single isomer, unassigned) was run?
A: < 50 nM

Q: With Cc1noc(C)c1-c1cc(C(N)=O)c2c3ccc(C(C)(C)O)cc3n(C(CCC(F)(F)F)c3ccccn3)c2c1 (single isomer, unassigned) as the compound, how does the IC50 read?
A: < 50 nM

Q: Cc1noc(C)c1-c1cc(C(N)=O)c2c3ccc(C(C)(C)O)cc3n(C(c3c(F)cc(F)cc3F)C3CCOCC3)c2c1 (single isomer, unassigned) was tested. Which IC50 did it give?
A: < 50 nM

Q: For Cc1noc(C)c1-c1cc(C(N)=O)c2c3ccc(C(C)(C)O)cc3n(C(c3c(F)cccc3F)C3CCOCC3)c2c1 (single isomer, unassigned), which IC50 is on record?
A: < 50 nM

Q: With Cc1noc(C)c1-c1cc(C(N)=O)c2c3ccc(C(C)(C)O)cc3n(C(c3ccc(F)cc3F)C3CCOCC3)c2c1 (single isomer, unassigned) as the compound, how does the IC50 read?
A: < 50 nM

Q: For Cc1noc(C)c1-c1cc(C(N)=O)c2c3ccc(C(C)(C)O)cc3n(C(c3ccccc3F)C3CCOCC3)c2c1 (single isomer, unassigned), which IC50 is on record?
A: < 50 nM
